Measurements taken from patent US8765791B2, “Method of treating cancer using a neuropeptide Y 5R (NP Y5R) antagonist” (University Health Network, priority 2008, dated 2014).

Tested on: Ovarian cancer cells SKOV-3
Experiment: ovarian cancer xenograft model (Example 13)
Format: in vivo, SCID mice
Details: 10 mg/kg i.p. 1/week
Source text: Ovarian cancer cells SKOV-3 (5 millions) were implanted s.c. on the right flank of SCID mice (CB17, female, 4-6 weeks) (Charles River, Wilmington, Mass.). The mice were divided into four groups, 5 mice for each group. The treatments were started when the tumor volume reached at around 60 mm3, day 8 after tumor implantation. […] The tumor growth was monitored for the duration of the experiment. […] (FIG. 14)

## trastuzumab [HERCEPTIN®]
  tumor growth: inhibited tumor growth
